Data published in paper PMC10304876 (Molecules, 2023).
Several values for one entry are separate records, joined by “and”; a condition that tells them apart may be missing. Equal values may be shown once. Read-outs that look alike come from different tables or passages of the source.

Chains of the proteins cited; added tags and fusions are not shown. Lines headed by an entry give the natural chain unless they say otherwise; changes in a name come on top.
UniProt P35372, whole entry: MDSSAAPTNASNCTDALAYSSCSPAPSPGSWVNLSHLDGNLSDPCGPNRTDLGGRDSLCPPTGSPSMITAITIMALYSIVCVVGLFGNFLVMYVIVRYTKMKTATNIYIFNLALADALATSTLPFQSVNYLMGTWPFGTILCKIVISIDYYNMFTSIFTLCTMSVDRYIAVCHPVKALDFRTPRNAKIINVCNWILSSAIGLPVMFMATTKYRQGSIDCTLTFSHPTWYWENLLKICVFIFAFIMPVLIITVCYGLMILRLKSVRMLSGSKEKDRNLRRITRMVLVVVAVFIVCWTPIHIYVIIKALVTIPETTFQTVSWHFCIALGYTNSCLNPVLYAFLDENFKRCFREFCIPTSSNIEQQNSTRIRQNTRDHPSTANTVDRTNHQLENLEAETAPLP
UniProt P41145: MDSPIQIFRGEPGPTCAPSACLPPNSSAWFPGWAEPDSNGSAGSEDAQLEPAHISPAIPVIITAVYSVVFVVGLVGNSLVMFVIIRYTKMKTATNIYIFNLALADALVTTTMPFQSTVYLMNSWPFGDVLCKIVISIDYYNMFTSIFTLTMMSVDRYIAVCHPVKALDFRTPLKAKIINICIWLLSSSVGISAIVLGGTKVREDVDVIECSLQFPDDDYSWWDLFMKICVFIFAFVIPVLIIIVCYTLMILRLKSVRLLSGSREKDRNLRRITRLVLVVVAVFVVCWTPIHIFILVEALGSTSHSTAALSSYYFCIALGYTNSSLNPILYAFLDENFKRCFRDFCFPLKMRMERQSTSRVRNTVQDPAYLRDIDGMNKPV

Tests used:
[1] = target: T1, human μ-opioid receptor (OPRM1) (Homo sapiens, UniProt P35372); conditions: for EC50: read-out: MOR Agonist EC50 ± SEM
[2] = target: T1, human μ-opioid receptor (OPRM1)
[3] = target: T1, human μ-opioid receptor (OPRM1); test: cell-based; conditions: for EC50: MOR Agonist EC50 ± SEM (nM); for Emax: OPRM1, read-out: MOR Agonist %Emax ± SEM
[4] = target: T2, human κ-opioid receptor (OPRK1) (Homo sapiens, UniProt P41145); test: cell-based
[5] = target: T2, human κ-opioid receptor (OPRK1)

Structure (SMILES) | MOR Agonist EC50 ± SEM (nM) [1] | MOR Antagonist %Imax ± SEM [2] | EC50 [3] | Emax [3] [%] | EC50 [4] [nM] | KOR Agonist EC50 ± SEM (nM) [5] | EC50 [1] [nM]
OC[C@@H]1[C@H]2CCC[C@]1(c1cccc(O)c1)CCN2CCc1ccccc1 [Compound 10, 3-((1R,5S,9S)-9-(Hydroxymethyl)-2-phenethyl-2-azabicyclo[3.3.1]nonan-5-yl)phenol] | did not have any MOR agonist activity | 91 ± 34 (173 ± 24%) | > 10000 nM | – | – | – | –
OC[C@H]1[C@H]2CCC[C@]1(c1cccc(O)c1)CCN2CCc1ccccc1 [Compound 11, 3-((1R,5S,9R)-9-(Hydroxymethyl)-2-phenethyl-2-azabicyclo[3.3.1]nonan-5-yl)phenol] | – | – | 2.05 nM and 2 nM | 99 | > 10000 | – | –
OC[C@H]1[C@@H]2CCC[C@@]1(c1cccc(O)c1)CCN2CCc1ccccc1 [Compound 15, 3-((1S,5R,9R)-9-(Hydroxymethyl)-2-phenethyl-2-azabicyclo[3.3.1]nonan-5-yl)phenol] | – | 13 ± 6 (96 ± 8%) | – | 26 | > 10000 | – | –
OC[C@@H]1[C@@H]2CCC[C@@]1(c1cccc(O)c1)CCN2CCc1ccccc1 [Compound 16, 3-((1S,5R,9S)-9-(Hydroxymethyl)-2-phenethyl-2-azabicyclo [3.3.1]nonan-5-yl)phenol] | – | – | 203 nM | 54 | – | – | –
OCC[C@H]1[C@@H]2CCC[C@@]1(c1cccc(O)c1)CCN2CCc1ccccc1 [Compound 21, 3-((1S,5R,9R)-9-(2-Hydroxyethyl)-2-phenethyl-2-azabicyclo[3.3.1]nonan-5-yl)phenol] | – | – | 0.91 nM and 0.9 nM | 85 | > 10000 | did not have any KOR agonist activity | –
OCC[C@@H]1[C@@H]2CCC[C@@]1(c1cccc(O)c1)CCN2CCc1ccccc1 [Compound 22, 3-((1S,5R,9S)-9-(2-Hydroxyethyl)-2-phenethyl-2-azabicyclo[3.3.1]nonan-5-yl)phenol] | – | – | 35 nM | 83 | – | – | –
OCCC[C@H]1[C@H]2CCC[C@]1(c1cccc(O)c1)CCN2CCc1ccccc1 [Compound 34, 3-((1R,5S,9R)-9-(3-Hydroxypropyl)-2-phenethyl-2-azabicyclo[3.3.1]nonan-5-yl)phenol] | – | – | 0.32 nM and 0.3 nM | 100 | > 10000 | – | –
OCCC[C@@H]1[C@H]2CCC[C@]1(c1cccc(O)c1)CCN2CCc1ccccc1 [Compound 35] | – | – | – | 52 | – | – | 35
OCCC[C@H]1[C@@H]2CCC[C@@]1(c1cccc(O)c1)CCN2CCc1ccccc1 [Compound 36] | – | – | – | 65 | > 10000 | – | 1.2
OCCC[C@@H]1[C@@H]2CCC[C@@]1(c1cccc(O)c1)CCN2CCc1ccccc1 [Compound 39, 3-((1S,5R,9S)-9-(3-Hydroxypropyl)-2-phenethyl-2-azabicyclo[3.3.1]nonan-5-yl)phenol] | – | 1420 ± 265 (106 ± 11%) | 37 nM | 37 | – | – | –
COC[C@H]1[C@H]2CCC[C@]1(c1cccc(O)c1)CCN2CCc1ccccc1 [Compound 41, 3-((1R,5S,9R)-9-(Methoxymethyl)-2-phenethyl-2-azabicyclo[3.3.1]nonan-5-yl)phenol] | – | – | 0.65 nM and 0.7 nM | 100 | > 10000 | – | –
